Here are results for two compounds from patent publication US20250136593A1, “DEGRADATION AGENT AND USE THEREOF” (HITGEN INC., priority 2021, published 2025).

Amino acid sequences for entries named in this document (tags omitted).
UniProt Q07817, whole entry: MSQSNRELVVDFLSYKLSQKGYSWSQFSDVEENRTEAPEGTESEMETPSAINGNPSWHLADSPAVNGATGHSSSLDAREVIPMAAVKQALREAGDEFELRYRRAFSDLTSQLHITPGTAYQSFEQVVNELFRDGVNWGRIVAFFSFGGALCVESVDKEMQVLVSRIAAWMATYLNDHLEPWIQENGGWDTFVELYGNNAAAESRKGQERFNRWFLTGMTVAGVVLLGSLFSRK
UniProt Q96SW2, whole entry: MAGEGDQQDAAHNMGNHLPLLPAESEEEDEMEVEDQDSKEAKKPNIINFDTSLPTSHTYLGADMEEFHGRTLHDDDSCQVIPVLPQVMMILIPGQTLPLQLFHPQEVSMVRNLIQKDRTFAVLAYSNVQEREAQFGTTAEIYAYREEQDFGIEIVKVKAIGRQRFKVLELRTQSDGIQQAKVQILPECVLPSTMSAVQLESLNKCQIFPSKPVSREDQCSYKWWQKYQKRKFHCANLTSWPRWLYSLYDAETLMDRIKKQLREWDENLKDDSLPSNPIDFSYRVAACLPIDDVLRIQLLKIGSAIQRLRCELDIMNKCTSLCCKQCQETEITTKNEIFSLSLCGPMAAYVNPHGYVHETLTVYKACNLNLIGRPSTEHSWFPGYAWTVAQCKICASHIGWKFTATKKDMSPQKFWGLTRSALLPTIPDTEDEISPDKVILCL
UniProt Q16531, whole entry partner: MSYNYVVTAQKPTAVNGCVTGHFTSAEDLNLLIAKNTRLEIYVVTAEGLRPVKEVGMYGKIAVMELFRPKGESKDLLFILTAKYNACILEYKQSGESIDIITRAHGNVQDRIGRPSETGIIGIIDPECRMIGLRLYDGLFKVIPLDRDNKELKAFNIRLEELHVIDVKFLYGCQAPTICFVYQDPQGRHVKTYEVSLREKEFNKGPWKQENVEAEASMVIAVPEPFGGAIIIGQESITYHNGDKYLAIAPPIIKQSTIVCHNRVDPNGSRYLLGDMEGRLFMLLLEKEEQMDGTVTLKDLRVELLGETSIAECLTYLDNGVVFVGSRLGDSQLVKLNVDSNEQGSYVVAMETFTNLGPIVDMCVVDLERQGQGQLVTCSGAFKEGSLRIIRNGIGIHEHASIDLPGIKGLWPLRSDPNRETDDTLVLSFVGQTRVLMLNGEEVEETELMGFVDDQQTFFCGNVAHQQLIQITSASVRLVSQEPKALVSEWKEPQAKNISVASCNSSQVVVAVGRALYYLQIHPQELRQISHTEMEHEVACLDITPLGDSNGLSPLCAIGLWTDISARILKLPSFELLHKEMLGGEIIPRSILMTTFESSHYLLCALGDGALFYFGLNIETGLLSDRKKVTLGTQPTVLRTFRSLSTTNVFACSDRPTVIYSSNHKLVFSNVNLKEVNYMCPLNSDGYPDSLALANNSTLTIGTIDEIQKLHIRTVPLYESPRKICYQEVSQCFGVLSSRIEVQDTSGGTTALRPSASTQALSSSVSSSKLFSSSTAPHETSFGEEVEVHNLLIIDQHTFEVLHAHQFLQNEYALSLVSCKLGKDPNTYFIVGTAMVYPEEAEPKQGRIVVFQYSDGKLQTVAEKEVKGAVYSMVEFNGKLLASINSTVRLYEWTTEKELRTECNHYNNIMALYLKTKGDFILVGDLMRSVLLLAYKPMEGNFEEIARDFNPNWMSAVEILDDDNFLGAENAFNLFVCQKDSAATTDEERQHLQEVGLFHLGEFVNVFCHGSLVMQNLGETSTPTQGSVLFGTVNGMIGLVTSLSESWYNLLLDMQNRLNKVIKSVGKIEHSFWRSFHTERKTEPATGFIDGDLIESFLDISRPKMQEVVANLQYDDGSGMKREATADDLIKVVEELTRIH

In assay [1] the target is ternary complex between BCL-XL and CRBN-DDB1 (Homo sapiens, UniProt Q07817+Q96SW2). Briefly: Compound-induced formation of ternary complex between BCL-XL and CRBN-DDB1 by AlphaLISA. The following applies: peak signal; 60 nM Strep-BCL-XL and 60 nM His-CRBN/DDB1. The procedure:
Experimental Example 4, Detection of Compound-Induced Formation of Ternary Complex Between BCL-XL and CRBN-DDB1 by AlphaLISA Method
Na2HPO4(Sigma), NaH2PO4(Sigma), sodium chloride (Sigma), Tween-20 (Sigma), AlphaLISA®Nikel Chelate Acceptor beads (PerkinElmer), Strep-Tactin® Alpha Donor beads (PerkinElmer), Assay plate (Corning), Strep-BCl-XL (HitGen), His-CRBN/DDB1 (HitGen).
DMSO was used to dissolve the dry powder of the test compound to obtain a 10.00 mM solution. The instrument ECHO was used to perform gradient dilution of the compound, which was then added to a 384-well reaction plate (Corning, Cat #3824), so that the final concentration of DMSO in the entire reaction system (10.0 μL) was less than 1%, and the same amount of DMSO was added and used as a control.
Strep-BCl-XL and His-CRBN/DDB1 proteins were dissolved in buffer (10 mM NaH2PO4, 40 mM Na2HPO4, 150 mM sodium chloride, 0.03% Tween20, pH=7.4) to obtain a protein mixture of 60 nM Strep-BCL-XL and 60 nM His-CRBN/DDB1, the protein mixture (5ul/well) was added to the 384-well plate in which the compound had been added, and incubated at room temperature for 30 minutes, then 5 μl of a detection mixture with 50 μg/ml AlphaLISA®Nikel Chelate Acceptor beads and 50 μg/ml Strep-Tactin® Alpha Donor beads was added, and incubated at room temperature for 2 hours; and then a microplate reader was used to detect AlphaLISA signal. […]
In general terms: Alpha assays give light when donor and acceptor beads are brought close together.

In another assay the test system is MOLT-4 cells. Briefly: Inhibitory activity on MOLT4 cell proliferation by Cell Titer-Glo method. The following applies: read-out: IC50 concentration for inhibiting MOLT-4 cells, 72 hours incubation. The procedure:
Experimental Example 5, Evaluation Experiment of Inhibitory Activity of Compound on MOLT4 Cell Proliferation by Cell Titer-Glo Method
RPMI medium modified (Hyclone), FBS (Corning), Dimethyl Sulfoxide, P/S, CellTiter-Gbo Luminescent Cell Viability Assay (Promega), MOLT-4 cell (ATCC).
MOLT-4 cells were cultured in monolayer in vitro in an incubator containing 5% CO2 air at 37° C. The culture medium was RPMI 1640 with 10% FBS and 1% P/S. 15 μL of MOLT4 cells, containing 5×10^4 cells per ml, was inoculated to a 384-well plate (Corning, 3707), 750 cells/well, and incubated at 37° C. and 5% CO2 for 30 minutes. […]
The 384-well plate was taken out from the cell culture incubator and allowed to stand at room temperature, equilibrated for 20 to 30 minutes, and then 25 μl of Cell Titer-Glo detection reagent was added to each reaction well, lysed on a shaker for 2 minutes, incubated for 10 minutes, and BMG PHERAStar (Luminescence) was used for reading.
The inhibition rate was calculated based on the luminescence signals: the average value of the negative control (maximum signal control) and the blank control (minimum signal control) was first calculated, then the inhibition rates of the compound at different concentrations for the cells were calculated as follows: […]
Background: ATP-based viability assays read luminescence as a measure of living cells.

Assay [2] deals with BCL-XL protein in MOLT-4 cells (Homo sapiens, UniProt Q07817). In words: Degradation effect on BCL-XL protein in MOLT-4 cells by Western Blot. The following applies: read-out: DC50 concentration for BCL-XL protein degradation, 24 hours incubation, corrected by β-actin. The protocol:
Experimental Example 6. Experiment to Evaluate Degradation Effect of Compound on BCL-XL Protein in MOLT-4 Cells by Western Blot Method
SDS-PAGE gel (4-12%) (Genscript), PMSF 100 mM (Biyotime), Cocktail 100× (Biyotime), P/S, RPMI medium modified (Hyclone), FBS (Corning), 4× loading buffer (Thermo), Bcl-xL (54H6) Rabbit mAb (CST), Anti-rabbit IgG-HRP (CST), Anti-β-actin-HRP (Abcam), RIPA (Biyotime), Tween-20, MOLT-4 cell (ATCC), BCA Protein Assay Kit (TIANGEN), Immobilon Western Chemilunescent HRP Substrate (Millipore). […]
2) Protein extraction: After the compound and the cells were co-incubated for 24 hours, the cells were collected and placed in a 1.5 mL centrifuge tube, washed twice with ice-cold PBS, the supernatant was discarded, then 150 μL of RIPA lysis buffer was added and lysis was carried out on ice for 30 minutes; then the cell lysate was centrifuged in a low-temperature centrifuge at 15,000 rpm for 10 minutes, and the supernatant was collected; and BCA Protein Assay Kit was used to quantify the protein in the resulting cell lysate supernatant. […]

Some results are limits rather than exact numbers.

Take `O=C1CCC(N2Cc3cc(C#CCN4CCN(CC#Cc5ccc(/C=C/c6ccc(C(=O)N7CCc8cnc(-c9cnc%10ccccc%10c9)nc8C7)cc6)cc5)CC4)ccc3C2=O)C(=O)N1` (centres unmarked): the “AlphaLISA signal (PROTAC ternary complex signal intensity)” value in assay [1] was “+”. In addition, the IC50 in the assay on MOLT-4 cells is 100 to 200 µM. For the same compound, the DC50 in assay [2] was < 1 µM.

In the case of `O=C1CCC(N2C(=O)c3cccc(OCCCCN4CCN(CC#Cc5ccc(/C=C/c6ccc(C(=O)N7CCc8cnc(-c9cnc%10ccccc%10c9)nc8C7)cc6)cc5)CC4)c3C2=O)C(=O)N1` (centres unmarked), the “AlphaLISA signal (PROTAC ternary complex signal intensity)” value in assay [1] is given as “+”. The DC50 in assay [2] is 100 to 200 µM.
